Measured values: publication PMC5303009, “Benzenesulphonamide inhibitors of the cytolytic protein perforin” (Bioorganic & Medicinal Chemistry Letters, 2017)

Assays:
[1] = Microsome stability, mouse; assay type: in vitro ADME; settings: sodium salt, mouse microsomes, 30 min
[2] = tested on: KHYG-1 NK cells; assay: Toxicity to KHYG-1 NK cells (Trypan blue exclusion); assay type: cell-based, human; settings: after 24 h, ± SEM
Method: The use of NK cells to secrete perforin rather than employing isolated recombinant protein is a more stringent test of a compound’s ability to block lytic activity, requiring the inhibitor to access the synaptic cleft between effector (NK) and target cells where perforin is released. In this assay, inhibitor is co-incubated with KHYG-1 NK cells in medium for 30 min at room temperature, ^51Cr-labelled target cells added and cell lysis evaluated after 4 h incubation at 37 °C by measuring ^51Cr release.
The toxicity assay was carried out in exactly the same manner as the killing assay above, but instead of adding the labelled K562 target cells, 100 μL of RPMI 0.1% BSA was added. Cells were incubated for 4 h at 37 °C and then washed ×3 in RPMI + 0.1% BSA. […] Trypan blue was added to each well. Viable (clear) cells and total (clear + blue) cells were counted, and the percentage of viable cells was calculated compared to DMSO treated cell control (% viability).

## CN1Cc2cc(-c3ccc(-c4cncc(NS(=O)(=O)c5ccc(F)cc5F)c4)s3)ccc2C1=O [Compound 5]
[1]
  Microsome stability (% parent remaining), Mouse: 92%
[2]
  KHYG-1 viability (% at 20 μM): 93 ± 3.3%
